The assay deals with IP6K1 (Homo sapiens (Human), UniProt Q92551). Nature of the assay: IP6K1 IC50 of compounds of Formula (IA) and Formula (IB). Format: biochemical.

Protein sequences, listed by entry. Tags and fused reporters are not part of them. Lines headed by an entry give the natural chain unless they say otherwise; changes in a name come on top.
UniProt Q92551: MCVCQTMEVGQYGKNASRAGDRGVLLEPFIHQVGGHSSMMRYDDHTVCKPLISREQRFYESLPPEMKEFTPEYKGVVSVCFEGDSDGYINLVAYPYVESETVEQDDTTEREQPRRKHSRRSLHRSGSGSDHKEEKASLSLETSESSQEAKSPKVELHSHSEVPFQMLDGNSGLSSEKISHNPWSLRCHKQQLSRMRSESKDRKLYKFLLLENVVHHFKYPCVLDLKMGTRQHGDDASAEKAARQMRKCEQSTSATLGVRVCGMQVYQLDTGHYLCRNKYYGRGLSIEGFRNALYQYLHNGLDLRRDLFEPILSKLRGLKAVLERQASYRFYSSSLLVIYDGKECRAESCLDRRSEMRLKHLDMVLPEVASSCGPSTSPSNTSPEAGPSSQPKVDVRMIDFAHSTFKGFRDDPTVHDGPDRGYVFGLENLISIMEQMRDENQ

In the case of `O=C(O)c1ccc2[nH]c(=O)n(C3CCN(Cc4ccccc4Cl)CC3)c2c1`, the “IP6K1 IC50” value is “+ +”. `O=C(O)c1ccc2c(c1)[nH]c(=O)n2C1CCN(Cc2ccc(Cl)cc2Cl)CC1`: the IC50 (read-out: IP6K1 IC50) is 3 to 30 µM. Regarding `O=C(O)c1ccc2[nH]c(=O)n(C3CCN(Cc4ccc(Cl)cc4Cl)CC3)c2c1`, the “IP6K1 IC50” value is “+ +”.

Source of the values: patent publication US20250197396A1, “COMPOUNDS FOR INHIBITING INOSITOL HEXAKISPHOSPHATE KINASE (IP6K) AND METHODS OF USE THEREOF” (Lieber Institute, Inc., priority 2020, published 2025).
